Laboratory results published in article PMC4775937, “Combination Effects of Antimicrobial Peptides” (Antimicrobial Agents and Chemotherapy, 2016).

Test system: Escherichia coli MG1655
Format: cell-based
Conditions: E. coli MG1655; MH broth, 96-well plates, 2-fold gradient 0.25 to 128 μg/ml; approx. 5 × 10^5 log-phase bacteria per well; 37°C overnight
Method: Escherichia coli MG1655 was grown in Luria-Bertani (LB) broth at 37°C with aeration at 220 rpm in 50-ml tubes. Two hundred microliters of overnight culture was resuspended into 15 ml fresh LB broth, cultured under the same conditions for an additional 2 h, and then used for subsequent assays. Mueller-Hinton (MH) broth was used for the assay of MICs and time-killing curves.
According to a standard protocol ([35]), stock solutions of AMPs were diluted in MH broth and then diluted in 96-well plates with a 2-fold gradient, that is, from 0.25 μg/ml to 128 μg/ml. All the gradients of antibiotics were from 0.02 μg/ml to 50 μg/ml, except that the gradient of ciprofloxacin was from 0.002 μg/ml to 1 μg/ml. Approximately 5 × 10^5 log-phase bacteria were added to each well. A positive control containing MH broth and bacteria and a negative control containing only MH broth were included in each plate, and plates were incubated at 37°C overnight.

CC[C@H](C)[C@H](NC(=O)CN)C(=O)NCC(=O)N[C@@H](C)C(=O)N[C@H](C(=O)N[C@@H](CC(C)C)C(=O)N[C@@H](CCCCN)C(=O)N[C@H](C(=O)N[C@@H](CC(C)C)C(=O)N[C@H](C(=O)N[C@H](C(=O)NCC(=O)N[C@@H](CC(C)C)C(=O)N1CCC[C@H]1C(=O)N[C@@H](C)C(=O)N[C@@H](CC(C)C)C(=O)N[C@H](C(=O)N[C@@H](CO)C(=O)N[C@@H](Cc1c[nH]c2ccccc12)C(=O)N[C@H](C(=O)N[C@@H](CCCCN)C(=O)N[C@@H](CCCNC(=N)N)C(=O)N[C@@H](CCCCN)C(=O)N[C@@H](CCCNC(=N)N)C(=O)N[C@@H](CCC(N)=O)C(=O)N[C@@H](CCC(N)=O)C(N)=O)[C@@H](C)CC)[C@@H](C)CC)[C@@H](C)O)[C@@H](C)O)C(C)C)C(C)C [Mel, melittin]
MIC: 4 µg/mL (≈ 1.41 µM)

Converted amounts (≈) assume the structure as drawn.
